Binding of CDR-mutated scFvs to a peptide of the spike HR2 region

Values reported by Engelhart et al. 2022, doi:10.1038/s41597-022-01779-4 (FLAb copy).

Binding partner: SARS-CoV-2 spike HR2 peptide, sequence PDVDLGDISGINAS.

Ab-14 is the parent antibody, in scFv form: VH, then a (GGGGS)3 linker, then VL. The heavy chain is unchanged in all variants.
VH: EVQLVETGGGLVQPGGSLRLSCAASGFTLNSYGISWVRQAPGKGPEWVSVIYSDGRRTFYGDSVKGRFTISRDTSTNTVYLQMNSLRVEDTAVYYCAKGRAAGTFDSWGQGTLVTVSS
VL: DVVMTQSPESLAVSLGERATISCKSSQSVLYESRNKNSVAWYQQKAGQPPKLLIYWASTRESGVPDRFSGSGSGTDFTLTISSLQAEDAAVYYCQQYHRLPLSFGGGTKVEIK

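The starting antibody came from a phage panning campaign against this peptide. AAYL50 was designed without a model: most single CDR substitutions and a random sample of double and triple ones. In AlphaSeq, yeast of one mating type display the scFv and yeast of the other type display the target. The frequency of each diploid, read from paired DNA barcodes, reflects how well the two displayed proteins bind. A regression on co-assayed BCL2-family reference pairs converts the normalised counts of each replicate to an apparent Kd. Mating was done three times.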

Variants are written as CDR1, CDR2 and CDR3 of the light chain (limits as in the source). Parent: KSSQSVLYESRNKNSVA, WASTRES, QQYHRLPLS. Every variant below is changed at W56 of the VL (sequential numbering). Values are apparent Kd, the geometric mean of the replicates that gave a signal; lower means stronger binding. A pair that was not seen in any replicate is written "no signal"; this usually means weak binding, but a binder can also be missed.

With KSSQSALYESRNKNSVA / PASTRES / QQYHRLPDS the result was no signal (0 of 3 replicates; controls 0 of 9).
With KSSQSVLYESINKNSCA / DASTRES / QQYHRLPLS the result was 12 nM (3 of 3 replicates; controls 3 of 9).
With CSSQSVLYESRNKNSVA / TASTRES / QQYHGLPLS the result was 67 nM (3 of 3 replicates; controls 1 of 9).
With KSSQWVLYESRNKNSVA / YASARES / QQYHRLPLS the result was 95 nM (3 of 3 replicates; controls 0 of 9).
With KSSQSVLYESRYKNSVA / FASTRES / QQYHNLPLS the result was 310 nM (2 of 3 replicates; controls 0 of 9).
With KESQSVLYESRNKNSVA / CASTRHS / QQYHRLPLS the result was 140 nM (2 of 3 replicates; controls 0 of 9).
With KSSTSVLYESRNKNSVA / CASTRES / SQYHRLPLS the result was no signal (0 of 3 replicates; controls 0 of 9).
With KSSQSVLYESRNKNSVA / HASTRES / DQYHTLPLS the result was 15 nM (3 of 3 replicates; controls 8 of 9).
With KSSQSVLYESCNKNSVA / TASTRES / QQYHRLPLS the result was 3.7 nM (3 of 3 replicates; controls 1 of 9).
With KSSQSVLYESRNKNDVA / RASTRES / QQYHRLPLS the result was 4.4 nM (3 of 3 replicates; controls 1 of 9).
With KSVQSVLYESRNKNSVA / QASTRES / QQYHRSPLS the result was 10 nM (3 of 3 replicates; controls 6 of 9).
With KSSQSVLYESRNKNSVA / RAQTRES / QQYHRLPLS the result was 21 nM (3 of 3 replicates; controls 5 of 9).
With KSSQSVLYYSRNKNSVA / DAITRES / QQYHRLPLS the result was 1.9 nM (3 of 3 replicates; controls 5 of 9).
With KSSQSVLYESDSKNSVA / RASTRES / QQYHRLPLS the result was 1.4 nM (3 of 3 replicates; controls 2 of 9).
With KSPQSVLYESRNKQSVA / AASTRES / QQYHRLPLS the result was 1.1 nM (3 of 3 replicates; controls 2 of 9).
With KSSQSVLAESRNKNSVA / VASTRES / QQYHRAPLS the result was 84 nM (3 of 3 replicates; controls 0 of 9).
With KSSQLVLYESYNKNSVA / MASTRES / QQYHRLPLS the result was 35 nM (3 of 3 replicates; controls 1 of 9).
With KSSQSVLYESRNKNSVA / DASTRES / YQYHRLPLS the result was 390 nM (3 of 3 replicates; controls 1 of 9).
With KSSQSVLYESRNYNSVA / HASTRWS / QQYHRLPLS the result was 20 nM (3 of 3 replicates; controls 2 of 9).
With KSSQSVLYESRNKNSVA / GASTVES / QQYHRLPRS the result was no signal (0 of 3 replicates; controls 0 of 9).
With KSSQSVLYESRNKNSVA / ASSTRES / QQYHRLPLS the result was 2.0 nM (3 of 3 replicates; controls 0 of 9).
With KSGQSVLYESRNKNSVC / GASTRES / QQYHRLPLS the result was no signal (0 of 3 replicates; controls 0 of 9).
With KSSQSVLYRSRNKNSVA / VASTRES / QQGHRLPLS the result was 1.9 µM (2 of 3 replicates; controls 0 of 9).
With KSSISVLYESRNKNSVA / DASTRES / QQYHRLPLS the result was 740 pM (3 of 3 replicates; controls 1 of 9).
With KSSQSVLYESRNKNSPA / YASTRES / QQYHRNPLS the result was 320 µM (1 of 3 replicates; controls 3 of 9).
With KSSQSVLYESRNKNSVA / FASTRMS / QQYHRLPLC the result was 42 nM (3 of 3 replicates; controls 4 of 9).
With KSSQSVGYESRNKNSVA / AASTCES / QQYHRLPLS the result was 3.5 nM (3 of 3 replicates; controls 1 of 9).
With KSSQRVLYESRNKNSVA / YASTRES / QEYHRLPLS the result was 97 nM (3 of 3 replicates; controls 0 of 9).
With KSSQSVLYESRNKNSVA / LASTRES / QPYHRLPLS the result was no signal (0 of 3 replicates; controls 0 of 9).
With KYSQSVLYESRNKNSVA / MADTRES / QQYHRLPLS the result was 58 nM (3 of 3 replicates; controls 0 of 9).
With KSSQSVLYESRNKNSVA / RASTREE / QQYHRLFLS the result was no signal (0 of 3 replicates; controls 0 of 9).
With MSSQSVLYESRNKNSVA / TAYTRES / QQYHRLPLS the result was 820 nM (2 of 3 replicates; controls 0 of 9).
With KSLQSVLYESRNVNSVA / IASTRES / QQYHRLPLS the result was 160 µM (2 of 3 replicates; controls 5 of 9).
With KSSQSVLYESRNKNSVA / KASHNES / QQYHRLPLS the result was 48 µM (1 of 3 replicates; controls 5 of 9).
With KSSDSVLYEYRNKNSVA / GASTRES / QQYHRLPLS the result was 1.4 nM (3 of 3 replicates; controls 1 of 9).
With KSSQPVLYESRNKNSVA / FASTRES / QQYHRAPLS the result was no signal (0 of 3 replicates; controls 0 of 9).
With KSSQSVLYISRNKNSVA / PASTRES / QQYHRLPLS the result was 550 nM (3 of 3 replicates; controls 5 of 9).
With KSSQSVLYDSRNKNSVA / HASTREE / QQYHRLPLS the result was 390 pM (3 of 3 replicates; controls 0 of 9).
With KSSQSVLNESRNKNSVA / HGSTRES / QQYHRLPLS the result was 10 nM (3 of 3 replicates; controls 1 of 9).
With KSSQSVLYESRNKNSVA / FAGTREP / QQYHRLPLS the result was no signal (0 of 3 replicates; controls 1 of 9).
With KSSQSVLYESRNKNSKA / LASTAES / QQYHRLPLS the result was 1.9 µM (1 of 3 replicates; controls 0 of 9).
With KSSQSVLYESRNKNSVA / LASTRNM / QQYHRLPLS the result was 9.1 nM (2 of 3 replicates; controls 0 of 9).
With KSSQSVLYLSRNKNSVA / RASTRES / QQYHRLPLS the result was 560 nM (1 of 3 replicates; controls 0 of 9).
With KSSQSVRYESRNKNSVA / YASTRES / QWYHRLPLS the result was 58 nM (2 of 3 replicates; controls 0 of 9).

For reference, 6 entries of the list once more:

With KSSQSALYESRNKNSVA / PASTRES / QQYHRLPDS the result was no signal (0 of 3 replicates; controls 0 of 9).
With KSSQSVLYESRYKNSVA / FASTRES / QQYHNLPLS the result was 310 nM (2 of 3 replicates; controls 0 of 9).
With KSSQWVLYESRNKNSVA / YASARES / QQYHRLPLS the result was 95 nM (3 of 3 replicates; controls 0 of 9).
With KSSQSVLYESDSKNSVA / RASTRES / QQYHRLPLS the result was 1.4 nM (3 of 3 replicates; controls 2 of 9).
With KSSQSVLYYSRNKNSVA / DAITRES / QQYHRLPLS the result was 1.9 nM (3 of 3 replicates; controls 5 of 9).
With KSSQSVLYESRNKNSVA / LASTRNM / QQYHRLPLS the result was 9.1 nM (2 of 3 replicates; controls 0 of 9).

As a blank, each scFv also met three strains without target: over library AAYL50, 18% of these pairings were detected, typically at 15 µM and seldom below 970 nM. For each scFv, signals with the empty controls are counted beside the result. For reference, the parent read 4.4 nM as the reference entry and 48 nM as a member of this library.